Results as given in PubChem BioAssay AID743279 (National Center for Advancing Translational Sciences (NCATS), 2014).
The entries are a selection whose mix differs from that of the whole data set. Some of these compounds have results that are not shown, active ones among them. Records with an inconclusive call do not appear. Calls of active or inactive are those of the source. Rule as the data show it: active = activity change below about -50%; inconclusive = mostly about -30% to -49%; inactive = weaker than that.
% is scaled to controls: 0 for no effect and ±100 for the full control effect.

Test: qHTS for Inhibitors of Inflammasome Signaling: IL-1-beta AlphaLISA Primary Screen
Conditions: THP-1 LPS/ATP IL-1B secretion, 16 h; at 57.5 µM, hits give low values
From the text: Inflammasomes are a set of intracellular multi-protein complexes that enable autocatalytic activation of inflammatory caspases and drive the innate immune response to counter harmful agents. […] A qHTS assay, based on AlphaLISA technology, was developed to screen the Molecular Libraries Small Molecule Repository (MLSMR) to look for novel inflammasome inhibitors. The assay detects IL-1B using AlphaLISA anti-IL-1B acceptor and donor beads. A decreased emission signal, indicating reduced IL-1B secretion, is the desired outcome for this assay. NIH Chemical Genomics Center [NCGC] NIH Molecular Libraries Probe Centers Network [MLPCN] MLPCN Grant: MH095513 Assay Provider: Shyam Biswal Ph.D., Johns Hopkins University Immunity. 2012 Jul 27;37(1):85-95. PMID: 22819042 [2] Curr Pharm Des. 2012;18(16):2320-8. PMID: 22390695
Three microliters containing 3000 THP-1 cells were dispensed into the wells of solid, white, tissue culture treated Greiner 1,536-well plates. Library compounds and positive control, Glyburide, were pin-transferred (23 nL) by a Kalypsys pin-tool equipped with a 1,536-pin array, resulting in final compound concentration ranges of 2.5 nM to 57.5 uM. After 1 hr of cell culture incubation (37 °C, 5% CO2), 1 microL of 1 microg/mL lipopolysaccharide (250 ng/mL, final) and 5 mM ATP (1.25 mM, final) were added to stimulate the cells. After 16 hr of cell culture incubation with the compounds, 1.5 uL of anti-IL-1B acceptor beads (6 ug/mL, final) and biotinylated antibody (0.6 nM, final) were added to the plate, followed by a 1 hr incubation at ambient temperature. To detect the secreted IL-1B, 1.5 uL of AlphaLISA SA-Donor beads (24 ug/mL, final) were added, followed by 30 min of incubation in the dark at ambient temperature. The AlphaLISA signal was read by a PerkinElmer EnVision plate reader with an ultrasensitive luminescence detector and 1536 Plate HTS AlphaScreen aperture (excitation of 680nm and emission of 615nm).
In the case of COc1cc(C(=O)NCC2(N(C)C)CCCCC2)c([N+](=O)[O-])cc1OC, the activity change is reported as inactive: 4.77%. For CN(C)C1(CNC(=O)c2ccc(Br)cc2)CCCCC1, the activity change was inactive: -9.49%. In the case of O=C(NCC1(N2CCCCC2)CCCCC1)c1cccc(Cl)c1, the activity change is reported as inactive: -8.09%. In the case of COc1cccc(C(=O)NCC2(N3CCCCC3)CCCCC2)c1, the activity change is reported as inactive: 11%. With COc1ccc(Cl)cc1C(=O)NCC1(N(C)C)CCCCC1 the activity change was inactive: -20.9%. For O=C(OC1CN2CCC1CC2)C(CO)(c1ccccc1)c1ccccc1 (stereo unspecified), the activity change was inactive: -15.5%. With CN(C)c1cccc(C(=O)NCC2(N(C)C)CCCCC2)c1 the activity change was inactive: 7.66%. With CC(C)Oc1ccc(C(=O)NCC2(N(C)C)CCCCC2)cc1 the activity change was inactive: 16.1%. With O=C(OCCN1CCCC1)C(O)(c1ccccc1)c1ccccc1 the activity change was inactive: -15.9%. In the case of COc1ccc(Br)c(C(=O)NCC2(N3CCCCC3)CCCCC2)c1, the activity change is reported as inactive: 21.8%. For C=C(C)C#CC(O)(C(=O)OC1CCN(C)CC1)c1ccccc1 (stereo unspecified), the activity change was inactive: -12.5%. With CN1[C@@H]2CC[C@H]1CC(OC(=O)C(O)(c1ccccc1)c1ccccc1)C2 (stereo partly specified) the activity change was inactive: -11.8%. In the case of O=C(NCC1(N2CCCCC2)CCCCC1)c1cc([N+](=O)[O-])ccc1Cl, the activity change is reported as “active”. With Cc1ccc(C(=O)NCC2(N3CCCCC3)CCCCC2)cc1 the activity change was inactive: -6.33%. In the case of CC(C)N1C(=O)CC2(CCN(CCOC(=O)C(O)(c3ccccc3)c3ccccc3)CC2)C1=O, the activity change is reported as inactive: 10.6%. With CCN(CC)CC(C)C(C)OC(=O)C(O)(c1ccccc1)c1ccccc1 (stereo unspecified) the activity change was inactive: -21.3%. With COc1cc(SC)ccc1C(=O)NCC1(N(C)C)CCCCC1 the activity change was inactive: 6.14%. In the case of Cc1ccccc1C(=O)NCC1(N2CCCCC2)CCCCC1, the activity change is reported as inactive: -3.88%. In the case of CN(C)c1ccc(C(=O)NCC2(N(C)C)CCCCC2)cc1, the activity change is reported as inactive: -7.22%. With CN(C)C1CCCC1OC(=O)C(O)(c1ccccc1)c1ccccc1 (stereo unspecified) the activity change was inactive: -15.7%. For CCN1CCCC(OC(=O)C2(O)c3ccccc3C=Cc3ccccc32)C1 (stereo unspecified), the activity change was inactive: -28.6%. For Cc1cc(C(=O)NCC2(N3CCCCC3)CCCCC2)ccc1[N+](=O)[O-], the activity change was inactive: -3.9%. With O=C(NCC1(N2CCCCC2)CCCCC1)c1cccc(Br)c1 the activity change was inactive: 7.03%. For COc1ccc(C(=O)NCC2(N(C)C)CCCCC2)cc1, the activity change was inactive: -7.01%. For C=CCN1CCN(CCOC(=O)C(O)(c2ccccc2)c2ccccc2)CC1, the activity change was inactive: 13.3%. For O=C(NCC1(N2CCCCC2)CCCCC1)c1cc(F)c(F)cc1Cl, the activity change was inactive: -17.9%.
